# Results published in patent US9459207B2, “Method of characterizing interactions and screening for effectors” (Wyatt Technology Corporation, priority 2010, dated 2016).
# “Also recorded” adds a separate entry of the source.
# Molecular target: chymotrypsin:soybean trypsin inhibitor (Bos taurus, UniProt P00766)
# Experiment: DLS chymotrypsin/soybean trypsin inhibitor heteroassociation repeated in the presence of a small molecule inhibitor
# Format: binding
# Details: 500 mM AEBSF; hydrochloride
# Description: The additional data set in FIG. 3, represented by open squares, is the same experiment repeated in the presence of 500 mM 4-(2-Aminoethyl) benzenesulfonyl fluoride hydrochloride (AEBSF). AEBSF, is a small molecule known to be a serine protease inhibitor which binds to the chymotrypsin active site, thus inhibiting the binding of the soybean trypsin inhibitor. Since AEBSF is a small molecule (rh<<1 nm), the decay rate of the autocorrelation function associated with AEBSF is faster than may be observed with conventional DLS technology, and the presence of that molecule is not observed in the DLS signal. When AEBSF associates with chymotrypsin, the rh of the associated species is not measurable different from that of unassociated chymotrypsin. The increase in rh seen in the absence of AEBSF is not observed in this experiment. […] Additionally, the association constant of AEBSF with chymotrypsin may be measured using this invention by repeating the chymotrypsin/soybean trypsin inhibitor/AEBSF experiment and lowering the concentration of AEBSF until some increase in rh is seen, and modeling the associating species.
smiles,measurement,value
"Cl.NCCc1ccc(S(=O)(=O)F)cc1 [AEBSF, 4-(2-Aminoethyl) benzenesulfonyl fluoride hydrochloride]",inhibition of chymotrypsin/soybean trypsin inhibitor binding (increase in rh),completely inhibited; also recorded: No binding
